# Yeast mating assay B: variants of the scFv Ab-14

Reference: Li et al. 2023, doi:10.1038/s41467-023-39022-2. File: FLAb, binding data.

Antigen: PDVDLGDISGINAS, a 14-residue peptide of the SARS-CoV-2 spike HR2 region.

The variants keep the light chain, the linker and the frameworks of Ab-14 (scFv order VH, three GGGGS repeats, VL).
VH: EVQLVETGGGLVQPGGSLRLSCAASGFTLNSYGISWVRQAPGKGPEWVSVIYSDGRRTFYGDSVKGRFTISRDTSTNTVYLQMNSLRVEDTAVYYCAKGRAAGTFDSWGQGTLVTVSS
VL: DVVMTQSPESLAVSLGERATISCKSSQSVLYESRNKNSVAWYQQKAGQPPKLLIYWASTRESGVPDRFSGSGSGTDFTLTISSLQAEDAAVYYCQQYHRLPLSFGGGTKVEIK

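The starting antibody came from a phage panning campaign against this peptide. This is the validation round: designs drawn from the data on random variants, tested in the same kind of assay. Group labels follow the data file (En: ensemble of fine-tuned language models; HC: hill climbing; Gen: genetic algorithm; Gibbs: Gibbs sampling; a sequence that several methods proposed may carry one label only). AlphaSeq pools MATa yeast showing the antibodies with MATalpha yeast showing the peptide. Binding brings cells together so that they mate, and sequencing counts the barcode pairs among the diploids. A regression on co-assayed BCL2-family reference pairs converts the normalised counts of each replicate to an apparent Kd. There are six technical replicates.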

Variants are written as CDR1, CDR2 and CDR3 of the heavy chain (limits as in the source). Parent: GFTLNSYGIS, VIYSDGRRTFYGDSVK, GRAAGTFDS.
This list holds designs with more than six substitutions.
Values are apparent Kd, the geometric mean of the replicates that gave a signal; lower means stronger binding.
Where no diploid with the target was found in any replicate, the entry reads "no signal": below detection, most likely a poor binder, though not proof of it.

For GFDINEYGIS / VIYADGSRQAYADNVK / GFWGCVIYV [En_Gibbs], the assay gave no signal (0 of 6 replicates; controls 0 of 18).
For GFDLDEYGIS / VIYADGRRTFYSDNVK / GEAAGTFDI [En_HC], the assay gave 170 pM (6 of 6 replicates; controls 0 of 18).
For GFDLNEYGIS / VIYADGVRTAYSDDVK / GNQAGTFDV [En_Gen], the assay gave 410 pM (6 of 6 replicates; controls 0 of 18).
For GFDIGEYGIS / VIYADGQRTAYKPTVK / GNHTGLVFI [En_Gibbs], the assay gave no signal (0 of 6 replicates; controls 0 of 18).
For GFDLNEYGIS / VIYADGMRTFYQDSVK / GEIAGTFDQ [En_HC], the assay gave 720 pM (6 of 6 replicates; controls 0 of 18).
For GFDLNEYGIS / VIYADGLRTYYADSVK / GQNAGTFDQ [En_HC], the assay gave 240 pM (6 of 6 replicates; controls 1 of 18).
For GFDLEEYGIS / VIYADGRRTFYADSVK / GEAAGTFDV [En_HC], the assay gave 440 pM (6 of 6 replicates; controls 0 of 18).
For GFDLEDYGIS / VIYADGMRTAYADSVK / GEVAGTFDQ [En_Gen], the assay gave 220 pM (6 of 6 replicates; controls 0 of 18).
For GFNLNEYGIS / VIYADGRRTFYADSVK / GEQAGTFDM [En_HC], the assay gave 2.8 nM (5 of 6 replicates; controls 0 of 18).
For GFDLNEYGIS / VIYADGRRTFYSDKVK / GNVGGTFDV [En_HC], the assay gave 390 pM (6 of 6 replicates; controls 0 of 18).
For GFDLNEYGIS / VIYADGRRTFYADSVK / GQLAGTFDA [En_HC], the assay gave 210 pM (6 of 6 replicates; controls 1 of 18).
For GFDLMNYGIS / VIYADGKRAAYIDDVK / GYSTGFIDV [En_Gibbs], the assay gave 110 nM (1 of 6 replicates; controls 0 of 18).
For GFNIDEYGIS / VIYADGSRAVYTESVK / GHNGNRLVG [En_Gibbs], the assay gave no signal (0 of 6 replicates; controls 0 of 18).
For GFDLNEYGIS / VIYADGRRTQYADSVK / GEQAGTFDV [En_HC], the assay gave 2.5 nM (6 of 6 replicates; controls 2 of 18).
For GFDLNEYGIS / VIYADGVRTAYADSVK / GNQAGTFDT [En_Gen], the assay gave 750 pM (6 of 6 replicates; controls 0 of 18).
For GFDIDEYGIS / VIYADGRRTFYADSVK / GTNAGTFDQ [En_HC], the assay gave 22 nM (1 of 6 replicates; controls 0 of 18).
For GFDLNEYGIS / VIYADGFRTSYTDSVK / GEVAGTFDS [En_HC], the assay gave 600 pM (6 of 6 replicates; controls 0 of 18).
For GFNLDEVGIS / VIYADGSRVAYVDNVK / GTVDAVGFV [En_Gibbs], the assay gave no signal (0 of 6 replicates; controls 0 of 18).
For GFDLNEYGIS / VIYADGMRTAYADSVK / GGVAGTFDQ [En_Gen], the assay gave 320 pM (6 of 6 replicates; controls 0 of 18).
For GFDLNEYGIS / VIYADGVRTAYTDSVK / GTNAGTFDV [En_Gen], the assay gave 460 pM (6 of 6 replicates; controls 0 of 18).
For GFDLDEQGIS / VIYADGQRTAYADQVK / GMNGVIFRT [En_Gibbs], the assay gave no signal (0 of 6 replicates; controls 0 of 18).
For GFDLNEYGIS / VIYADGMRTAYADDVK / GHVAGTFDV [En_Gen], the assay gave 380 pM (6 of 6 replicates; controls 0 of 18).
For GFDLNEYGIS / VIYADGMRTAYIDSVK / GNVAGTFDT [En_Gen], the assay gave 420 pM (6 of 6 replicates; controls 0 of 18).
For GFDLNEYGIS / VIYADGVRTFYADSVK / GQVAGTFDV [En_Gen], the assay gave 200 pM (6 of 6 replicates; controls 0 of 18).
For GFDLDEYGIS / VIYADGRRTFYADSVK / GSTAGTFDV [En_HC], the assay gave 230 pM (6 of 6 replicates; controls 0 of 18).
For GFDLDEYGIS / VIYADGMRTAYADSVK / GETAGTFDQ [En_Gen], the assay gave 260 pM (6 of 6 replicates; controls 0 of 18).
For GQQLDEYGIS / VIYADGVRKSYVDSVK / GEITGTFSQ [En_Gibbs], the assay gave 5.0 µM (1 of 6 replicates; controls 0 of 18).
For GFDLNEYGIS / VIYADGMRTAYQDSVK / GTNAGTFDV [En_Gen], the assay gave 720 pM (6 of 6 replicates; controls 3 of 18).
For GFSLDEYGIS / VIYADGRRTFYADSVK / GNVAGTFDS [En_HC], the assay gave 1.4 nM (6 of 6 replicates; controls 0 of 18).
For GFDLNEYGIS / VIYADGMRTFYADDVK / GEVAGTFDL [En_Gen], the assay gave 380 pM (6 of 6 replicates; controls 1 of 18).
For GFDLNEYGIS / VIYADGMRTSYADDVK / GQNAGTFDV [En_Gen], the assay gave 1.5 nM (6 of 6 replicates; controls 1 of 18).
For GFDLNEYGIS / VIYADGMRTAYADSVK / GTVAGTFDI [En_Gen], the assay gave 1.2 nM (6 of 6 replicates; controls 0 of 18).
For GFDLNEYGIS / VIYADGMRTAYSNSVK / GEVAGTFDV [En_Gen], the assay gave 180 pM (6 of 6 replicates; controls 0 of 18).
For GFDLNEYGIS / VIYADGRRTFYTDSVK / GEVAGTFDI [En_HC], the assay gave 200 pM (6 of 6 replicates; controls 0 of 18).
For GFDLGEYGIS / VIYADGVKQSYVDKVK / GANGVDLLV [En_Gibbs], the assay gave no signal (0 of 6 replicates; controls 0 of 18).
For GFDLDEYGIS / VIYADGMRTAYADSVK / GNNAGTFDI [En_Gen], the assay gave 350 pM (6 of 6 replicates; controls 1 of 18).
For GFSIDEYGIS / VIYADGSRQVYQNKVK / GKGTGYFTT [En_Gibbs], the assay gave no signal (0 of 6 replicates; controls 0 of 18).
For GFDLNEYGIS / VIYADGVRTAYSDSVK / GEAAGTFDV [En_HC], the assay gave 340 pM (6 of 6 replicates; controls 0 of 18).
For EFDLQEYGIS / VIYADGKREAYKDNVK / GNGGGVFDA [En_Gibbs], the assay gave no signal (0 of 6 replicates; controls 0 of 18).
For GFDLNEYGIS / VIYADGMRKAYADSVK / GNVAGTFDT [En_Gen], the assay gave 280 pM (6 of 6 replicates; controls 0 of 18).
For GFDLDEYGIS / VIYADGMRTAYTDSVK / GANAGTFDI [En_Gen], the assay gave 1.6 nM (6 of 6 replicates; controls 0 of 18).
For GFDLNEYGIS / VIYADGVRKAYVDSVK / GNNAGTFDV [En_Gen], the assay gave 75 pM (6 of 6 replicates; controls 0 of 18).
For GFDLNEYGIS / VIYADGMRTAYLDSVK / GNVAGTFDL [En_Gen], the assay gave 570 pM (6 of 6 replicates; controls 0 of 18).
For GFDINEYGIS / VIYADGKRTFYTDSVK / GGNAGTFDV [En_HC], the assay gave 330 pM (6 of 6 replicates; controls 0 of 18).
For GFSLEEFGIS / VIYADGFRRAYAQDVK / GGHAGHFVV [En_Gibbs], the assay gave no signal (0 of 6 replicates; controls 0 of 18).
For GEDLNEYGIS / VIYADGQRTAYDESVK / GKFAGSFFH [En_Gibbs], the assay gave no signal (0 of 6 replicates; controls 0 of 18).
For GFDLDEYGIS / VIYADGVRTAYSDSVK / GNVAGTFDT [En_Gen], the assay gave 340 pM (6 of 6 replicates; controls 0 of 18).
For GFNIDEYGIS / VIYADGQRLSYDDNVK / GGITGTFDN [En_Gibbs], the assay gave no signal (0 of 6 replicates; controls 0 of 18).
For GFDLNEYGIS / VIYADGKRTAYSDSVK / GANAGTFDI [En_Gen], the assay gave 73 pM (6 of 6 replicates; controls 0 of 18).
For GFNLDEFGIS / VIYADGMRTAYSQDVK / GQHVEFTVS [En_Gibbs], the assay gave no signal (0 of 6 replicates; controls 1 of 18).
For GFDLDEYGIS / VIYADGVRTAYTDSVK / GNNAGTFDV [En_Gen], the assay gave 690 pM (6 of 6 replicates; controls 0 of 18).

For reference, 7 entries of the list once more:

CDR-H1,CDR-H2,CDR-H3,group,Kd,seen in,empty controls
GFDLEDYGIS,VIYADGMRTAYADSVK,GEVAGTFDQ,En_Gen,220 pM,6 of 6,0 of 18
GFDLNEYGIS,VIYADGFRTSYTDSVK,GEVAGTFDS,En_HC,600 pM,6 of 6,0 of 18
GFDIGEYGIS,VIYADGQRTAYKPTVK,GNHTGLVFI,En_Gibbs,no signal,0 of 6,0 of 18
GFDLNEYGIS,VIYADGMRTAYLDSVK,GNVAGTFDL,En_Gen,570 pM,6 of 6,0 of 18
EFDLQEYGIS,VIYADGKREAYKDNVK,GNGGGVFDA,En_Gibbs,no signal,0 of 6,0 of 18
GFDLGEYGIS,VIYADGVKQSYVDKVK,GANGVDLLV,En_Gibbs,no signal,0 of 6,0 of 18
GFNIDEYGIS,VIYADGQRLSYDDNVK,GGITGTFDN,En_Gibbs,no signal,0 of 6,0 of 18

The authors' rule: three or more of the six replicates give a measured affinity, fewer mean a poor binder.
Values of this round are not directly comparable with the first-round values of the same sequences.
As a blank, each scFv also met three strains without target: over all heavy chain designs, 1% of these pairings were detected, typically at 120 nM and seldom below 7.0 nM. For each scFv, signals with the empty controls are counted beside the result.
Of ten entries with the parent sequence, four were seen in most replicates (averages 2.2 nM to 240 nM), three in one and three in none, so single entries are noisy.